Results published in ChEMBL document CHEMBL5241098, “Progress in the development of small molecular inhibitors of the Bruton's tyrosine kinase (BTK) as a promising cancer therapy” (Bioorg Med Chem, 2021).

Key:
[1] = organism: Homo sapiens; assay: Selectivity index, ratio for inhibition of EGFR (unknown origin) to competitive inhibition of recombinant human BTK
[2] = organism: Homo sapiens; assay: Selectivity index, ratio for inhibition of HCK (unknown origin) to competitive inhibition of recombinant human BTK
[3] = organism: Homo sapiens; assay: Selectivity index, ratio for inhibition of FGR (unknown origin) to competitive inhibition of recombinant human BTK

Measured: Ratio

C=C(Cl)C(=O)N1CCC(n2nc(-c3ccc(Oc4ccccc4)cc3)c3c(N)ncnc32)CC1
< 50: all assays above
